Literature values as cited in patent US12428648B2, “Compositions comprising peptides that block transmission of orthotospoviruses” (priority 2019, dated 2025).

Chains of the proteins cited; added tags and fusions are not shown. Residues count along the entry.
UniProt P05106, 27-788: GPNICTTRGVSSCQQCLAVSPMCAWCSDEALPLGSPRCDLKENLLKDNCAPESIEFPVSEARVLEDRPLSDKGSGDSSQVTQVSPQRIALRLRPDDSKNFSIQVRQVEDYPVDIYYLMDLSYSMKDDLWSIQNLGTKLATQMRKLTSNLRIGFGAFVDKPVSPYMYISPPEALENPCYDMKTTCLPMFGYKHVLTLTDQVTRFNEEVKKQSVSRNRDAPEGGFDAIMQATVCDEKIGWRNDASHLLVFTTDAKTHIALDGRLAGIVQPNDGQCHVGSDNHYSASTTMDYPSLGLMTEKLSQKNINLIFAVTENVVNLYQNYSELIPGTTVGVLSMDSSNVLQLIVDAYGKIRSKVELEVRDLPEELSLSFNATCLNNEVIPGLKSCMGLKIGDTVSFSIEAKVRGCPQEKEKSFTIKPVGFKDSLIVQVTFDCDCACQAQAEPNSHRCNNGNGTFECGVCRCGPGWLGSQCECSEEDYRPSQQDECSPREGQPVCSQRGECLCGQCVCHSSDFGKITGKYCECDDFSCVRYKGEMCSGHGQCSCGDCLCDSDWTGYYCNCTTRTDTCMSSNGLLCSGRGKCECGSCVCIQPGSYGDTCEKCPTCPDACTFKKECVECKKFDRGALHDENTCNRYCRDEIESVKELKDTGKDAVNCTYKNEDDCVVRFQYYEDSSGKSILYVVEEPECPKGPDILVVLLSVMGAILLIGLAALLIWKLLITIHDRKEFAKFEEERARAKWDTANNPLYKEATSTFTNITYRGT
UniProt P06756, 31-1048: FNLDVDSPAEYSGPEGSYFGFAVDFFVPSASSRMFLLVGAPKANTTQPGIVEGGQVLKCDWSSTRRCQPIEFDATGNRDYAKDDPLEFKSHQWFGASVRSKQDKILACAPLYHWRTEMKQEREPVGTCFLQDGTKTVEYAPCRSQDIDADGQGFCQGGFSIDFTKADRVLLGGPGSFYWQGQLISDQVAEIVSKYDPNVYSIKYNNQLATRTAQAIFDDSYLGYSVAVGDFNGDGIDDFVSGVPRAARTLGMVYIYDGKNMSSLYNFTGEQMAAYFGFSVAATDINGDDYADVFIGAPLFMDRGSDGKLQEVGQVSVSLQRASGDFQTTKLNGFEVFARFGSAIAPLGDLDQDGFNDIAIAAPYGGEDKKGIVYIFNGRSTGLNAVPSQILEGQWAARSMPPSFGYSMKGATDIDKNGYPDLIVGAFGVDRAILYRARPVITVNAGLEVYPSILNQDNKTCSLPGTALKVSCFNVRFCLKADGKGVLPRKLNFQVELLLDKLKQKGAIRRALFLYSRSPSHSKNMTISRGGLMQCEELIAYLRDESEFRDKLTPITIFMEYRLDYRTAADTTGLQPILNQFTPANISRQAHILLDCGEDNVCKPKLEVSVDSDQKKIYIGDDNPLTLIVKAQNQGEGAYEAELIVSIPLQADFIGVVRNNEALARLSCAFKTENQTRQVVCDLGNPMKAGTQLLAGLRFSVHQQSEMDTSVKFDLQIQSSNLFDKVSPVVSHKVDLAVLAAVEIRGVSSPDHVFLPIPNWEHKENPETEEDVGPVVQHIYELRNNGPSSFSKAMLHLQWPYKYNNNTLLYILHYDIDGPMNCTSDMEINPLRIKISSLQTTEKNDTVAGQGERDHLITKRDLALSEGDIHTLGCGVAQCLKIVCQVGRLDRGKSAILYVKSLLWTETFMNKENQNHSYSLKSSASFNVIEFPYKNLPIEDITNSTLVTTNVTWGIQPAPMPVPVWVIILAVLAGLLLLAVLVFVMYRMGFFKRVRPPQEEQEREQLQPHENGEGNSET

Target: αvβ3 (Homo sapiens, UniProt P05106+P06756)
Conditions: Hersel et al., 2003; cited from earlier work

Substance: cyclo (RGDf(NMe)V)
- integrin selectivity, in words: selective for αvβ3
